Data published in paper PMC3224194 (European journal of pharmacology, 2011).

Sequences of proteins named here, by UniProt entry; tags and fusion partners are left off. Residues count along the entry.
UniProt P28335, 33-458 S138A: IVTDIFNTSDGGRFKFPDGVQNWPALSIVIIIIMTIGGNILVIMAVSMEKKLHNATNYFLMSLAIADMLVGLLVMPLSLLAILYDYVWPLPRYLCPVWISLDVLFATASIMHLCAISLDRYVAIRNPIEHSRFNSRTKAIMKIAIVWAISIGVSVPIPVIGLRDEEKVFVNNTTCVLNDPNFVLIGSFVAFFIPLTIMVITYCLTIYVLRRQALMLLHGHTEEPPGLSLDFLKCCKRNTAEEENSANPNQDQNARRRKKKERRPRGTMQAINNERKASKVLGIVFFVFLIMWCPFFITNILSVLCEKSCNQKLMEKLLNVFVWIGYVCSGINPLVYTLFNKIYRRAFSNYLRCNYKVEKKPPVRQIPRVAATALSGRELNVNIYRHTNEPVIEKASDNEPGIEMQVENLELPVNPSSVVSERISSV
UniProt P28335, 33-458 Y358A: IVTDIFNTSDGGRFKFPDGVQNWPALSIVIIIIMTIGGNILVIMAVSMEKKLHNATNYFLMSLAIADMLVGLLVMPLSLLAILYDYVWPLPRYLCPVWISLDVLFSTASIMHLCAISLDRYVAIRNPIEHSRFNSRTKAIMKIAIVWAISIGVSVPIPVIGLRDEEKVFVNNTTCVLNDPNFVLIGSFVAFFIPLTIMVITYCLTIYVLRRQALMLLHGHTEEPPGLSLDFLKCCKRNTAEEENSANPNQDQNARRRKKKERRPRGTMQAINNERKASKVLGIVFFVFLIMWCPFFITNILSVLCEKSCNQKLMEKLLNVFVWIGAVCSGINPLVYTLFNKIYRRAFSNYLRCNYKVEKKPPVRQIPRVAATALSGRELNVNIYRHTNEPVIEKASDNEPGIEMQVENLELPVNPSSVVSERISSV
UniProt P28335, 33-458: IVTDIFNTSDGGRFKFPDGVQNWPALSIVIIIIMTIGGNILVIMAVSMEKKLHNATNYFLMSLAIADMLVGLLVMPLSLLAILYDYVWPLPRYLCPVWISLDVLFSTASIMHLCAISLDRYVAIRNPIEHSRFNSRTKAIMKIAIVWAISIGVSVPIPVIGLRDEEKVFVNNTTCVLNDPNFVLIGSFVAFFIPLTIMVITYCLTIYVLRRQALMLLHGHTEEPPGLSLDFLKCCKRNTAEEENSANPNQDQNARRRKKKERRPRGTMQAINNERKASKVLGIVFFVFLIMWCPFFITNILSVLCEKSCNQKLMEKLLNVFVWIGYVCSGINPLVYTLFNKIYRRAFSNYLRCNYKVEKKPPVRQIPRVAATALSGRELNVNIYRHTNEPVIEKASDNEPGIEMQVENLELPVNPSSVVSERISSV

Tests used:
[1] = molecular target: T1, human 5-HT2C-INI (WT) receptor (Homo sapiens, UniProt P28335, S138A); test: radioligand saturation binding, HEK membranes
[2] = molecular target: T2, human 5-HT2C-INI (WT) receptor (Homo sapiens, UniProt P28335, Y358A); test: radioligand saturation binding, HEK membranes
[3] = molecular target: T2, human 5-HT2C-INI (WT) receptor; test: [3H]-inositol phosphate accumulation; type: cell-based
[4] = molecular target: T1, human 5-HT2C-INI (WT) receptor; test: [3H]-inositol phosphate accumulation; type: cell-based
[5] = molecular target: human 5-HT2C-INI (WT) receptor (Homo sapiens, UniProt P28335); test: radioligand saturation binding, HEK membranes; details: read-out: [^3H]-Mesulergine / Kd; labelled compound; 50 mM Tris, 10 mM MgCl2, 0.1 mM EDTA; room temperature, 90 min

CN1C[C@@H](NS(=O)(=O)N(C)C)C[C@@H]2c3cccc4c3c(cn4C)C[C@H]21 [[^3H]-mesulergine]
Kd [1]: 2 nM | Kd [2]: 3 nM | IC50 [3]: 38.9 nM | EC50 [4]: 19.9 nM | Kd [5]: 1.8 nM
